A short description of series [1]: in vitro. Conditions: human.
A short description of series [2]: in vitro. Conditions: human. The source holds these as a separate data set.

Regarding `COc1ccc(C[C@H]2NC[C@H](O)[C@H]2OC(C)=O)cc1` [ANISOMYCIN], in “in vitro [1]”, the CC50 worked out at 0.189 µM. Further, the CC50 at 48 h in “in vitro [2]” was 5.98 µM.

The record behind these values is patent US20230346820A1, “METHODS AND COMPOSITIONS FOR THE TREATMENT OF SARS-COV-2” (priority 2020, published 2023).
